Values of other authors, collected in patent US20070292421A1, “Method for treating preeclampsia” (priority 2005, published 2007).

Biological target: T1, human C5a receptor (Homo sapiens, UniProt P21730)
T1 sequence (P21730 1-350): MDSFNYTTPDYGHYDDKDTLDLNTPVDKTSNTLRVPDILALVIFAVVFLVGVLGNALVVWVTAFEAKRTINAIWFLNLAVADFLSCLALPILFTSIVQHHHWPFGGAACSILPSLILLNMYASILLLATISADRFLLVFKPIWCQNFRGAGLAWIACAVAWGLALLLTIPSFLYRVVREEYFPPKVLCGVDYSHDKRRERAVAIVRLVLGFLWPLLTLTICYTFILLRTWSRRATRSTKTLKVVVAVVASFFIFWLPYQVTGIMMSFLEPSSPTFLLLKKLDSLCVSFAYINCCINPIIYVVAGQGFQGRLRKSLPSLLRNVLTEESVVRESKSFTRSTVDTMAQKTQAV

Ac-Phe [3D53, Ac-Phe [Orn-Pro-D-Cha-Trp-Arg]]
oral activity (human, in vivo, po): orally active
efficacy in decreasing inflammatory sequelae (phase II clinical trials): superior efficacy to NSAID's and glucocorticoids
